# Measurements reported in ChEMBL document CHEMBL1125444, “SC-53116: the first selective agonist at the newly identified serotonin 5-HT4 receptor subtype” (J Med Chem, 1992).
# Amino acid sequences for entries named in this document (tags omitted). A change or cut given only in a name is not applied to a line headed by its entry.
# UniProt P61169, whole entry: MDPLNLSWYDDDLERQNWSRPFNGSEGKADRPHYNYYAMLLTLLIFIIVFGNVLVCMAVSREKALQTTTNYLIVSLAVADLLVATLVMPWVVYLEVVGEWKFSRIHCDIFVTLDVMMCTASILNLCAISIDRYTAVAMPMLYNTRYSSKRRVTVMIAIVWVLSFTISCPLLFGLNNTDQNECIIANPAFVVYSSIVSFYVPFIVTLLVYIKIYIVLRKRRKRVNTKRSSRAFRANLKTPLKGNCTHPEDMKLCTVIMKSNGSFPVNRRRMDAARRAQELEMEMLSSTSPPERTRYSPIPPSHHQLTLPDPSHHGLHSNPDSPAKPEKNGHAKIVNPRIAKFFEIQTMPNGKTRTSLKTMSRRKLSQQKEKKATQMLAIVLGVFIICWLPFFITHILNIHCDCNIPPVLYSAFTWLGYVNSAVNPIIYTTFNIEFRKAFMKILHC
# UniProt P35563, whole entry: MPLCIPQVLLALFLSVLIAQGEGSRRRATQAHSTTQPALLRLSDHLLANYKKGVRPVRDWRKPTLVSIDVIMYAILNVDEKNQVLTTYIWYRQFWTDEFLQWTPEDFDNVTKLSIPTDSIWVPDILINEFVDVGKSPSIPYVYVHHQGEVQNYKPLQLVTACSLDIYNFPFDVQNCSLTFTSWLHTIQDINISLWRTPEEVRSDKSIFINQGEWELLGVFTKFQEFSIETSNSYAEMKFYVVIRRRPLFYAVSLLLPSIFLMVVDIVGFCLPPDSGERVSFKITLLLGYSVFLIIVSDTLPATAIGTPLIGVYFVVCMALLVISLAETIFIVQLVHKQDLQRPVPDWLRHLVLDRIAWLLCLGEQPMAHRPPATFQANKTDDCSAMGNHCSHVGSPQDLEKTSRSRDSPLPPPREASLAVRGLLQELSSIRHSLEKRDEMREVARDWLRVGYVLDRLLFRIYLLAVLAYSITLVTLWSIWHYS
# UniProt Q9JJ16: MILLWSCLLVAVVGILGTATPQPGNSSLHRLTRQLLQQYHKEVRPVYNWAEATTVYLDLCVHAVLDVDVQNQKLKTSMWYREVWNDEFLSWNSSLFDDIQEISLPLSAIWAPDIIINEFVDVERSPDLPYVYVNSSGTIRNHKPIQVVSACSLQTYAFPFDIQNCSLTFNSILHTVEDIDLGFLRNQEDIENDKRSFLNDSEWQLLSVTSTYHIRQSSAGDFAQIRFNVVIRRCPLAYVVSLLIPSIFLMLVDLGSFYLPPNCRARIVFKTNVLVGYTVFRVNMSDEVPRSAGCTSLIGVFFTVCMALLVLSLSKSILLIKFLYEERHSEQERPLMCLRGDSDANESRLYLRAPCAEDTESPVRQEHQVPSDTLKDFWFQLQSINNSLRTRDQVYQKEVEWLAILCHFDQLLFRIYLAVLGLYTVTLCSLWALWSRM
# How the values were obtained:
# D(2) dopamine receptor = D(2) dopamine receptor (Rattus norvegicus, UniProt P61169); test: Binding affinity to dopamine receptor D2
# [1] = biological target: Serotonin 3 (5-HT3) receptor (Rattus norvegicus, UniProt P35563+Q9JJ16); test: The ability to inhibit [3H]GR-65630 binding to 5-hydroxytryptamine 3 receptor in rat brain cortices; format: tissue-based
# In short: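 Membranes from male rat brain cortices incubated with [3H]GR65630 (0.2 nM) as radioligand. Nonspecific binding defined with 1 μM ICS-205930.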
SMILES,Ki (D(2) dopamine receptor) [nM],Ki [1] [nM]
CCN(CC)CCNC(=O)c1cc(Cl)c(N)cc1OC [METOCLOPRAMIDE],113,
NCCc1c[nH]c2ccc(O)cc12 [SEROTONIN],,390
